The experiment concerns PC-3_TxR paclitaxel-resistant prostate cancer cells (P-gp over-expressing). Conditions: compared IC50 values in PC-3 and PC-3/TxR.

The structures appear in SMILES notation.

Regarding `COc1cc(C(=O)c2csc(Nc3ccc4[nH]ccc4c3)n2)cc(OC)c1OC` [compound 55, (2-(1H-INDOL-5-YLAMINO)THIAZOL-4-YL)(3,4,5-TRIMETHOXYPHENYL)METHANONE], the resistance factor entry is given as “(0.4)”.
